Assay results reported in patent US20160052983A1 (ALKERMES, published 2016).
Blank lines part the entries; values can stand above or below the binder they belong to.

Assays:
[1] = target: T1, IL-1RI_Fc (fusion protein), immobilized mouse IL1RI receptor (mouse, UniProt P13504 20-338, limits assumed); experiment: SPR (Biacore), IL-1RI_Fc captured on the chip with the Human Antibody Capture Kit, analyte injected at 5 rising concentrations from 0.24 to 20 nM
T1 construct: not shown: Fc part; captured with the Human Antibody Capture Kit
T1 sequence (looked up): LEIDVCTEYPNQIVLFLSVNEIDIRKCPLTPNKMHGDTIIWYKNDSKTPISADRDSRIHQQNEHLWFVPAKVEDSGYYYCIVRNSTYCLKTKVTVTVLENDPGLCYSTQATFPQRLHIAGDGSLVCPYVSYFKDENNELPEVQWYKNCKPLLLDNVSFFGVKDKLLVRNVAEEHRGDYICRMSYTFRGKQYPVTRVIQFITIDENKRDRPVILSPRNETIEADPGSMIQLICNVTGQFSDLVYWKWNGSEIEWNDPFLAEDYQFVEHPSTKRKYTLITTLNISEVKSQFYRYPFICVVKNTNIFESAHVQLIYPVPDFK

[2] = target: T1, IL-1RI_Fc (fusion protein), immobilized …; experiment: as above; remark: listed apart in the source
[3] = target: T1, IL-1RI_Fc (fusion protein), immobilized …; experiment: as above; remark: listed apart in the source
[4] = target: T1, IL-1RI_Fc (fusion protein), immobilized …; experiment: SPR (Biacore), IL-1RI_Fc captured on the chip with the Human Antibody Capture Kit; sensorgram of Anakinra not shown, parameters in the inset only

koff [1]: 0.000144 s⁻¹
kon [1]: 270000 M⁻¹ s⁻¹
B1: RDB1826 (IL-1Ra fused to 6 MUC20 tandem repeats, C-terminal FLAG tag) (other)
chain: SARRPSGRKSSKMQAFRIWDVNQKTFYLRNNQLVAGYLQGPNVNLEEKIDVVPIEPHALFLGIHGGKMCLSCVKSGDETRLQLEAVNITDLSENRKQDKRFAFIRSDSGPTTSFESAACPGWFLCTAMEADQPVSLTNMPDEGVMVTKFYFQEDEGGGGSSESSASSDGPHPVITPSRASESSASSDGPHPVITPSRAGGGGSSESSASSDGPHPVITPSRASESSASSDGPHPVITPSRAGGGGSSESSASSDGPHPVITPSRASESSASSDGPHPVITPSRAGGGGSDYKDDDDK
notes: Expressed in CHO cells and heavily glycosylated on the mucin domain; also called IL1Ra 6TR; 6TR

koff [2]: 8.7e-05 s⁻¹
kon [2]: 360000 M⁻¹ s⁻¹
B2: RDB1813 (IL-1Ra fused to 2 MUC20 tandem repeats, C-terminal His-tag) (other)
chain: SARRPSGRKSSKMQAFRIWDVNQKTFYLRNNQLVAGYLQGPNVNLEEKIDVVPIEPHALFLGIHGGKMCLSCVKSGDETRLQLEAVNITDLSENRKQDKRFAFIRSDSGPTTSFESAACPGWFLCTAMEADQPVSLTNMPDEGVMVTKFYFQEDEGGGGSASSESSASSDGPHPVITESRASSESSASSDGPHPVITESRGSSHHHHHH
notes: Expressed in CHO cells and heavily glycosylated on the mucin domain; also called IL1Ra 2TR; 2TR

koff [3]: 0.000106 s⁻¹
kon [3]: 1.6e+06 M⁻¹ s⁻¹
B3: RDB1814 (IL-1Ra fused to 4 MUC20 tandem repeats, C-terminal His-tag) (other)
chain: SARRPSGRKSSKMQAFRIWDVNQKTFYLRNNQLVAGYLQGPNVNLEEKIDVVPIEPHALFLGIHGGKMCLSCVKSGDETRLQLEAVNITDLSENRKQDKRFAFIRSDSGPTTSFESAACPGWFLCTAMEADQPVSLTNMPDEGVMVTKFYFQEDEGGGGSASSESSASSDGPHPVITESRASSESSASSDGPHPVITESRGGGGSASSESSASSDGPHPVITESRASSESSASSDGPHPVITESRGSSHHHHHH
notes: Expressed in CHO cells and heavily glycosylated on the mucin domain; also called IL1Ra 4TR; 4TR

B4: Unmodified IL-1Ra (anakinra) (ligand, human, UniProt P18510 26-177, looked up)
chain: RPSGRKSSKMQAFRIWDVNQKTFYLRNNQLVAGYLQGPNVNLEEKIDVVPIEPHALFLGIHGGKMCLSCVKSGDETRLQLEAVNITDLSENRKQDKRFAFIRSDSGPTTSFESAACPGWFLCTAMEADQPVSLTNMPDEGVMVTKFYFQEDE
notes: mature; It describes anakinra as 153 amino acids
koff [4]: 0.00015 s⁻¹
kon [4]: 2.8e+06 M⁻¹ s⁻¹
